{
  "source": "patent US20180291378A1",
  "about": "“METHODS AND COMPOSITIONS FOR PROMOTING HAIR GROWTH” (THE TRUSTEES OF COLUMBIA UNIVERSITY IN THE CITY OF NEW YORK, priority 2015, published 2018)",
  "key": {"[1]": {"system": "human fetal scalp skin grafts", "assay": "Human skin grafting assay on SCID mice", "assay_type": "in vivo", "conditions": "daily topical application, ImageJ"}, "JAK1, JAK2, JAK3, TYK2": {"system": "JAK1, JAK2, JAK3, TYK2", "conditions": "cited from earlier work"}},
  "data": [
    {"smiles": "C[C@@H]1CCN(C(=O)CC#N)C[C@@H]1N(C)c1ncnc2[nH]ccc12", "note": "[tofacitinib]", "values": [
      {"measurement": "ratio of tofacitinib/vehicle intensity of pigmentation", "setting": "[1]", "result": "increased with days of treatment"},
      {"measurement": "order of JAK selectivity", "setting": "JAK1, JAK2, JAK3, TYK2", "result": "JAK1/3>JAK2>TYK2"}
    ]}
  ]
}
